The target of experiment [1] is T1, SUMO-^25-109MDM2 (UniProt Q00987 25-109).
T1 construct: range 25-109; Expressed in Rosetta (DE3) pLysS cells, MW=23 297 Da, used with the SUMO tag on; not shown: SUMO fusion tag (protein purified on Ni-NTA)
As to the kind of experiment: BLI, peptide on streptavidin sensors, global fit.

Protein sequences, listed by entry. Tags and fused reporters are not part of them. Lines headed by an entry give the natural chain unless they say otherwise; changes in a name come on top. Residues count along the entry.
UniProt Q00987, 25-109: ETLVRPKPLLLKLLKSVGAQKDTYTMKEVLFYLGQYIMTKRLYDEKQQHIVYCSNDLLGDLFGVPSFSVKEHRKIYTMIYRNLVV
UniProt P00760, 24-246: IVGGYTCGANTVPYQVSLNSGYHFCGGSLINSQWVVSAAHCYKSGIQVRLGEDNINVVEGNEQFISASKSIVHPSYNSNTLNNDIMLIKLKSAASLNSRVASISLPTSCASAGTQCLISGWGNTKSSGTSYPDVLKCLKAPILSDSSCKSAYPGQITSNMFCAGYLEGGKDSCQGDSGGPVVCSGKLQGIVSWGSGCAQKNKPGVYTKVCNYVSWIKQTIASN
UniProt P12071: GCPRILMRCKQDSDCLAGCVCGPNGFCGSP

Experiment [2] addresses T1, SUMO-^25-109MDM2. As to the kind of experiment: BLI, biotinylated peptide immobilized. In general terms: BLI is a label-free optical method that tracks binding on a fibre tip over time.
The target in experiment [3] is T1, SUMO-^25-109MDM2. Nature of the experiment: BLI, biotinylated peptide immobilized. This is another data set of the same source.
Experiment [4] has as its target T2, Human ^1-137MDMX (human, UniProt O15151 1-137).
T2 construct: range 1-137; Bought protein
T2 sequence (looked up): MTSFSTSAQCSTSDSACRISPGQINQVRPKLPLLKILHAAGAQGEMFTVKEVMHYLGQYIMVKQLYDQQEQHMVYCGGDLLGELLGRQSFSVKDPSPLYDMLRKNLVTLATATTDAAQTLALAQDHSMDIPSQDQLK
Nature of the experiment: BLI, peptide on streptavidin sensors, global fit.

In experiment [5] the target is T1, SUMO-^25-109MDM2. As to the kind of experiment: BLI, determined for 60 using biotinylated 60a.
Experiment [6] deals with Trypsin from bovine pancreas (bovine, UniProt P00760 24-246). Nature of the experiment: Trypsin inhibition assay (legend paragraph 120, which names the trypsin binders '59 and 60').

B1: peptide 1a (peptide)
peptide: LTFQHFWAELTSK
modifications: N-terminal biotinylation; C-terminal amide
The Kd is the concentration at which binding is half-saturated. A lower Kd goes with a tighter complex. As to B1, the affinity in experiment [1], expressed as Kd, was 45 nM.

B2: peptide 14a (peptide)
peptide: LTFEHYLAQFTSK
modifications: as printed LT(F3f)EHY(Hexa)AQ(Ff)TSK; N-terminal biotin label; C-terminal amide
B2 returned a Kd in experiment [1] of 3.2 nM.

B3: peptide 21a (peptide)
peptide: LTFEHYLAQFTSK
modifications: as printed LT(F2f)EHY(Hexa)AQ(Homof)TSK; N-terminal biotin label; C-terminal amide
For the molecule B3, the affinity in experiment [1], expressed as Kd, was 8.9 nM.

B4: peptide 24a (peptide)
peptide: LTFEHYLAQFTSK
modifications: as printed LT(F3f)EHY(Hexa)AQ(F5f)TSK; N-terminal biotin label; C-terminal amide
B4 had a Kd in experiment [1] of 16 nM.

B5: peptide 28a (peptide)
peptide: LTFEHYFAQFTSK
modifications: as printed LT(F2f)EHY(Napa)AQ(Ff)TSK; N-terminal biotin label; C-terminal amide
Consider B5, for which the Kd worked out at 83 nM in experiment [2] and 96 nM in experiment [1].

B6: peptide 2a (peptide)
peptide: LTFQHYWAELTSK
modifications: N-terminal biotinylation; C-terminal amide
For B6, the Kd in experiment [1] was 59 nM; in experiment [3], 62 nM.

B7: peptide 10a (peptide)
peptide: LTFEHYLAQLTSK
modifications: as printed LT(F2f)EHY(Hexa)AQ(Cba)TSK; N-terminal biotin label; C-terminal amide
For the molecule B7, the Kd in experiment [4] worked out at 26 nM.

B8: peptide 3a (peptide)
peptide: LTFPHYWAELTSK
modifications: N-terminal biotinylation; C-terminal amide
For the molecule B8, binding in experiment [1] was put at a Kd of 86 nM. This lies in the double-digit nanomolar range.

B9: peptide 18a (peptide)
peptide: LTFEHYLAQFTSK
modifications: as printed LT(F2f)EHY(Hexa)AQ(F3f)TSK; N-terminal biotin label; C-terminal amide
The molecule B9 had a Kd in experiment [1] of 7.6 nM.

B10: peptide 26a (peptide)
peptide: LTFEHYWAQFTSK
modifications: as printed LT(F2f)EHYWAQ(F3f)TSK; N-terminal biotin label; C-terminal amide
In turn, B10 yielded a Kd in experiment [1] of 23 nM.

B11: peptide 23a (peptide)
peptide: LTFEHYLAQFTSK
modifications: as printed LT(F3f)EHY(Hexa)AQ(F3f)TSK; N-terminal biotin label; C-terminal amide
Consider B11, for which the Kd in experiment [1] worked out at 15 nM.

B12: peptide 15a (peptide)
peptide: LTFEHYLAQFTSK
modifications: as printed LT(F2f)EHY(Hexa)AQ(Ff)TSK; N-terminal biotin label; C-terminal amide
B12 showed a Kd in experiment [1] of 3.8 nM.

B13: peptide 27a (peptide)
peptide: LTFEHYFAQLTSK
modifications: as printed LT(F2f)EHY(Napa)AQ(Cba)TSK; N-terminal biotin label; C-terminal amide
Regarding B13, the Kd turned out to be 24 nM in experiment [2] and 23 nM in experiment [1].

B14: peptide 5a (peptide)
peptide: LTFEHYWAQFTSK
modifications: N-terminal biotin label; C-terminal amide
Take B14: the values for the Kd in experiment [1] and in experiment [3] were 39 nM and 36 nM, respectively.

B15: pDI-Sulfone (60) (peptide)
peptide: LTFCHYWAQLCSK
modifications: the two cysteines joined by perfluorosulfone macrocyclization; C-terminal amide
notes: Obtained by perfluorosulfone macrocyclization of pDI-cysteine peptide; no label; also called PDI-Sulfone peptide
Take B15: in experiment [5], the Kd worked out at 22 nM.

B16: peptide 11a (peptide)
peptide: LTFEHYWAQLTSK
modifications: as printed LT(F2f)EHYWAQ(Cba)TSK; N-terminal biotin label; C-terminal amide
In experiment [4], B16 came in with a Kd of 33 nM.

B17: EETI-II (58) (peptide, UniProt P12071 1-28, looked up)
chain: GCPRILMRCKQDSDCLAGCVCGPNGFCG
modifications: oxidatively folded (disulfide bridges); C-terminal amide
notes: also called EETI-II knottin
In turn, B17 showed a Kd in experiment [6] of 1.2 nM.

Values taken from patent publication US20190300576A1 (MIT, published 2019).
